US9757358B2 (priority 2010, dated 2017)

Tested on: post-operative pain in rats (mechanical allodynia)
Conditions: given 3.5 h after surgery

SMILES: Cc1cc(OCCN2CCOCC2)nn1-c1ccc2ccccc2c1 [compound 63, 4-{2-[5-Methyl-1-(naphthalen-2-yl)-1H-pyrazol-3-yloxy]ethyl}morpholine]
- effect on remifentanil analgesia (compound 63 2.5, 5, 10, 20, 40, 80 mg/kg + remifentanil 0.01 mg/kg): enhances remifentanil analgesia
- effect on sufentanil analgesia (compound 63 5, 10, 20, 40 mg/kg + sufentanil 0.003 mg/kg): enhances sufentanil analgesia
- effect on fentanyl analgesia (compound 63 10, 20, 40, 80 mg/kg + fentanyl 0.01 mg/kg): enhances fentanyl analgesia
